Results reported in patent EP4732839A1, “USE OF COMPOUND IN TREATMENT OF LIVER DISEASES” (priority 2023, dated 2025).

Settings: 3/10/20 mpk i.g., livers collected 1 h, 2 h, 4 h post-dose
Method: C57BL/6J wild-type female mice (6 weeks old) were randomly grouped. After administration at different doses, whole blood and liver tissues of the mice were separately collected at 1 h, 2 h, and 4 h for detection of a plurality of parameters to evaluate the effect of the drugs on the liver.
Liver tissues and blood were collected at 1 h, 2 h, and 4 h after single dosing.
The supernatant was collected and stored (-20 °C); • (3) IFN-α, IP-10, IL-6, and TNF-α were detected using an ELISA kit. • (C) Remaining liver tissue-HE staining and pathological evaluation. • (D) 1/2 blood (whole blood)-liver function parameter detection: AST (aspartate aminotransferase), ALT (alanine aminotransferase/glutamate pyruvate transaminase), ALP (alkaline phosphatase), ALB (albumin), and GGT (γ-glutamyl transferase). • (E) 1/2 blood-serum preparation-reserve for ELISA.

In the case of COCCNc1nc(N)nc2ccc(Cc3ccc(CN(C)C)cc3)nc12 [Compound I], the “Liver HE staining” value is reported as “did not cause apparent pathological damage to the liver tissues”.
